According to patent US20080008771A1, “Nitric Oxide Dioxygenase Inhibitors” (priority 2004, published 2008):

System: microsomal NO metabolism (Caco-2 microsomes)

## Sn(IV)-protoporphyrin IX [Sn4+-protoporphyrin]
  Effect of porphyrins on microsomal NO metabolism: but not
